Source: patent US12171806B2, “Therapeutic regimens and methods for lowering blood glucose and/or body weight using GLP-1R and GCGR balanced agonists” (priority 2021, dated 2024)

Assay: Phase 1 MAD study of ALT-801: adverse events (TEAEs), safety overview

CC[C@H](C)[C@H](NC(=O)[C@H](Cc1ccccc1)NC(=O)[C@H](CCC(=O)O)NC(=O)[C@@H]1CCCCNC(=O)CC[C@H](NC(=O)[C@H](CC(=O)O)NC(=O)[C@H](CC(C)C)NC(=O)[C@H](Cc2ccc(O)cc2)NC(=O)[C@H](CCCCN)NC(=O)[C@H](CO)NC(=O)[C@H](Cc2ccc(O)cc2)NC(=O)[C@H](CC(=O)O)NC(=O)[C@H](CO)NC(=O)[C@@H](NC(=O)[C@H](Cc2ccccc2)NC(=O)[C@@H](NC(=O)CNC(=O)[C@H](CCC(N)=O)NC(=O)C(C)(C)NC(=O)[C@@H](N)Cc2c[nH]cn2)[C@@H](C)O)[C@@H](C)O)C(=O)N[C@@H](CCCCNC(=O)[C@H]2O[C@@H](OCCCCCCCCCCCCCCCCCC(=O)O)[C@H](O)[C@@H](O)[C@@H]2O)C(=O)N[C@@H](C)C(=O)N[C@@H](C)C(=O)N1)C(=O)N[C@@H](CCC(N)=O)C(=O)N[C@@H](Cc1c[nH]c2ccccc12)C(=O)N[C@@H](CC(C)C)C(=O)N[C@@H](CC(C)C)C(=O)N[C@@H](CCC(N)=O)C(=O)N[C@H](C(N)=O)[C@@H](C)O [ALT-801, pemvidutide]
TEAE Vascular disorders, maximum severity PLT, subjects % (M2 1.8 mg ALT-801 (N = 9)): (0.0%)
TEAE Vascular disorders, maximum severity PLT, subjects n (M2 1.8 mg ALT-801 (N = 9)): 0
TEAE Vascular disorders, maximum severity Severe, subjects % (M2 1.8 mg ALT-801 (N = 9)): (0.0%)
TEAE Vascular disorders, maximum severity Severe, subjects n (M2 1.8 mg ALT-801 (N = 9)): 0
Any TEAE; Mild; % (M3 2.4 mg (N = 11)): (54.5%)
Any TEAE; Mild; n (M3 2.4 mg (N = 11)): 6
Any TEAE; Moderate; % (M3 2.4 mg (N = 11)): (45.5%)
Any TEAE; Moderate; n (M3 2.4 mg (N = 11)): 5
Any TEAE; PLT; % (M3 2.4 mg (N = 11)): (0.0%)
Any TEAE; PLT; n (M3 2.4 mg (N = 11)): 0
Any TEAE; Severe; % (M3 2.4 mg (N = 11)): (0.0%)
Any TEAE; Severe; n (M3 2.4 mg (N = 11)): 0
TEAE Abdominal discomfort; Mild; % (M3 2.4 mg (N = 11)): (9.1%)
TEAE Abdominal discomfort; Mild; n (M3 2.4 mg (N = 11)): 1
TEAE Abdominal discomfort; Moderate; % (M3 2.4 mg (N = 11)): (0.0%)
TEAE Abdominal discomfort; Moderate; n (M3 2.4 mg (N = 11)): 0
TEAE Abdominal discomfort; PLT; % (M3 2.4 mg (N = 11)): (0.0%)
TEAE Abdominal discomfort; PLT; n (M3 2.4 mg (N = 11)): 0
TEAE Abdominal discomfort; Severe; % (M3 2.4 mg (N = 11)): (0.0%)
TEAE Abdominal discomfort; Severe; n (M3 2.4 mg (N = 11)): 0
TEAE Abdominal distension; Mild; % (M3 2.4 mg (N = 11)): (9.1%)
TEAE Abdominal distension; Mild; n (M3 2.4 mg (N = 11)): 1
TEAE Abdominal distension; Moderate; % (M3 2.4 mg (N = 11)): (0.0%)
TEAE Abdominal distension; Moderate; n (M3 2.4 mg (N = 11)): 0
TEAE Abdominal distension; PLT; % (M3 2.4 mg (N = 11)): (0.0%)
TEAE Abdominal distension; PLT; n (M3 2.4 mg (N = 11)): 0
TEAE Abdominal distension; Severe; % (M3 2.4 mg (N = 11)): (0.0%)
TEAE Abdominal distension; Severe; n (M3 2.4 mg (N = 11)): 0
TEAE Abdominal pain; Mild; % (M3 2.4 mg (N = 11)): (36.4%)
TEAE Abdominal pain; Mild; n (M3 2.4 mg (N = 11)): 4
TEAE Abdominal pain; Moderate; % (M3 2.4 mg (N = 11)): (0.0%)
TEAE Abdominal pain; Moderate; n (M3 2.4 mg (N = 11)): 0
TEAE Abdominal pain; PLT; % (M3 2.4 mg (N = 11)): (0.0%)
TEAE Abdominal pain; PLT; n (M3 2.4 mg (N = 11)): 0
TEAE Abdominal pain; Severe; % (M3 2.4 mg (N = 11)): (0.0%)
TEAE Abdominal pain; Severe; n (M3 2.4 mg (N = 11)): 0
TEAE Anaemia; Mild; % (M3 2.4 mg (N = 11)): (0.0%)
TEAE Anaemia; Mild; n (M3 2.4 mg (N = 11)): 0
TEAE Anaemia; Moderate; % (M3 2.4 mg (N = 11)): (0.0%)
TEAE Anaemia; Moderate; n (M3 2.4 mg (N = 11)): 0
TEAE Anaemia; PLT; % (M3 2.4 mg (N = 11)): (0.0%)
TEAE Anaemia; PLT; n (M3 2.4 mg (N = 11)): 0
TEAE Anaemia; Severe; % (M3 2.4 mg (N = 11)): (0.0%)
TEAE Anaemia; Severe; n (M3 2.4 mg (N = 11)): 0
TEAE Application site bruise; Mild; % (M3 2.4 mg (N = 11)): (0.0%)
TEAE Application site bruise; Mild; n (M3 2.4 mg (N = 11)): 0
TEAE Application site bruise; Moderate; % (M3 2.4 mg (N = 11)): (0.0%)
TEAE Application site bruise; Moderate; n (M3 2.4 mg (N = 11)): 0
TEAE Application site bruise; PLT; % (M3 2.4 mg (N = 11)): (0.0%)
TEAE Application site bruise; PLT; n (M3 2.4 mg (N = 11)): 0
TEAE Application site bruise; Severe; % (M3 2.4 mg (N = 11)): (0.0%)
TEAE Application site bruise; Severe; n (M3 2.4 mg (N = 11)): 0
TEAE Application site erythema; Mild; % (M3 2.4 mg (N = 11)): (0.0%)
TEAE Application site erythema; Mild; n (M3 2.4 mg (N = 11)): 0
TEAE Application site erythema; Moderate; % (M3 2.4 mg (N = 11)): (0.0%)
TEAE Application site erythema; Moderate; n (M3 2.4 mg (N = 11)): 0
TEAE Application site erythema; PLT; % (M3 2.4 mg (N = 11)): (0.0%)
TEAE Application site erythema; PLT; n (M3 2.4 mg (N = 11)): 0
TEAE Application site erythema; Severe; % (M3 2.4 mg (N = 11)): (0.0%)
TEAE Application site erythema; Severe; n (M3 2.4 mg (N = 11)): 0
TEAE Blood and lymphatic system disorders; Mild; % (M3 2.4 mg (N = 11)): (0.0%)
TEAE Blood and lymphatic system disorders; Mild; n (M3 2.4 mg (N = 11)): 0
TEAE Blood and lymphatic system disorders; Moderate; % (M3 2.4 mg (N = 11)): (0.0%)
TEAE Blood and lymphatic system disorders; Moderate; n (M3 2.4 mg (N = 11)): 0
TEAE Blood and lymphatic system disorders; PLT; % (M3 2.4 mg (N = 11)): (0.0%)
TEAE Blood and lymphatic system disorders; PLT; n (M3 2.4 mg (N = 11)): 0
TEAE Blood and lymphatic system disorders; Severe; % (M3 2.4 mg (N = 11)): (0.0%)
TEAE Blood and lymphatic system disorders; Severe; n (M3 2.4 mg (N = 11)): 0
TEAE Cardiac disorders; Mild; % (M3 2.4 mg (N = 11)): (18.2%)
TEAE Cardiac disorders; Mild; n (M3 2.4 mg (N = 11)): 2
TEAE Cardiac disorders; Moderate; % (M3 2.4 mg (N = 11)): (0.0%)
TEAE Cardiac disorders; Moderate; n (M3 2.4 mg (N = 11)): 0
TEAE Cardiac disorders; PLT; % (M3 2.4 mg (N = 11)): (0.0%)
TEAE Cardiac disorders; PLT; n (M3 2.4 mg (N = 11)): 0
TEAE Cardiac disorders; Severe; % (M3 2.4 mg (N = 11)): (0.0%)
TEAE Cardiac disorders; Severe; n (M3 2.4 mg (N = 11)): 0
TEAE Constipation; Mild; % (M3 2.4 mg (N = 11)): (18.2%)
TEAE Constipation; Mild; n (M3 2.4 mg (N = 11)): 2
TEAE Constipation; Moderate; % (M3 2.4 mg (N = 11)): (9.1%)
TEAE Constipation; Moderate; n (M3 2.4 mg (N = 11)): 1
TEAE Constipation; Potentially PLT; % (M3 2.4 mg (N = 11)): (0.0%)
TEAE Constipation; Potentially PLT; n (M3 2.4 mg (N = 11)): 0
TEAE Constipation; Severe; % (M3 2.4 mg (N = 11)): (0.0%)
TEAE Constipation; Severe; n (M3 2.4 mg (N = 11)): 0
TEAE Diarrhoea; Mild; % (M3 2.4 mg (N = 11)): (18.2%)
TEAE Diarrhoea; Mild; n (M3 2.4 mg (N = 11)): 2
TEAE Diarrhoea; Moderate; % (M3 2.4 mg (N = 11)): (0.0%)
TEAE Diarrhoea; Moderate; n (M3 2.4 mg (N = 11)): 0
TEAE Diarrhoea; PLT; % (M3 2.4 mg (N = 11)): (0.0%)
